# According to PubChem BioAssay AID1199 (EPA DSSTox, 2008):
# Calls of active or inactive are those of the source.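 How the source made its calls: active means a tumour-causing dose and a tumour site recorded for mice in at least one sex group; inconclusive means only government mouse studies exist and were judged inadequate; inactive means mouse studies exist but none gave tumours.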
# Test system: mouse carcinogenicity bioassay, TD50 from CPDB
# Assay: DSSTox (CPDBAS) Carcinogenic Potency Database Summary Mouse Bioassay Results
# Settings: TargetSites_Mouse_Female: no positive results; for outcome: TD50_Mouse_Note: no positive results
# Excerpt: The Carcinogenic Potency Database (CPDB) is a unique and widely used international resource of the results of over 6500 chronic, long-term animal cancer tests on over 1500 chemical substances. The CPDB provides easy access to the bioassay literature, with qualitative and quantitative analyses of both positive and negative experiments that have been published over the past 50 years in the general literature and by the National Cancer Institute/National Toxicology Program. The CPDB standardizes the diverse literature of cancer bioassays that vary widely in protocol, histopathological examination and nomenclature, and in the published author's choices of what information to provide in their papers. Results are reported in the CPDB for tests in rats, mice, hamsters, dogs, and nonhuman primates, and are based on the most positive result among all experiments for each sex-species. The DSSTox CPDBAS (all species) file incorporates data from the CPDB Summary Tables for the full list of over 1500 chemical substances tested in at least one species. Summary bioassay results for Mouse (TD50, tumor sites, male, female, both sexes) are provided in the CPDB Summary Tables and the DSSTox CPDBAS file for over 1000 chemical substances.
# TD50 is a standardized quantitative measure of carcinogenic potency (analogous to an LD50) and is reported in the CPDB Summary Table for each species. Activity Score for actives is computed by mapping of LOG10 (1/TD50_Mouse_mmol) activity values spanning range [MIN, MAX] onto Integer 1-100 Activity Score range, where 100 is highest potency and 1 is lowest: Activity Score = 100 * INTEGER[(log10(1/Activity) - MIN)/(MAX […] MIN)]. If activity is reported but no TD50_Mouse_mmol value is computed, such as for a mixture, the Activity Score is assigned the activity value "50". […] Target sites are reported for each sex-species group with a positive result in the CPDB on the basis of a positive author's opinion for the particular site, using all results from both the general literature and NCI/NTP bioassays. If a chemical has two or more target sites listed, the results may be from different experiments, and a single site may be a target organ in more than one experiment, as well. Blank entry in TargetSites field indicates no results reported.
Structure (SMILES),outcome,Potency [mmol/kg/day]
O=[N+]([O-])OCC(CO[N+](=O)[O-])(CO[N+](=O)[O-])CO[N+](=O)[O-],inactive; no positive results,
COP(C)(=O)OC,inactive; ntp bioassay inadequate,
Cc1ccc([N+](=O)[O-])cc1[N+](=O)[O-],inactive; no positive results,0.161
ClCl,inactive; no positive results,
